Experimental data from patent publication US20150307603A1 (MODIQUEST B V, published 2015).

Experiments:
[1] = biological target: T1, human recombinant histone 3 (human); test: ELISA, Ab 10 ug/well
T1 construct: Non-deiminated; also called H3
Source text: (§1) The resulting OD (y-axis) is a measure for antibody binding. H1-recombinant histone 1; H1/p2-huPAD2 recombinant histone 1; H1/p4-huPAD4 recombinant histone 1, and so forth (x-axis).
(§2) In order to further analyze which deiminated histone or histones are involved in the therapeutic action of RhmAb2.102, RhmAb2.108, RhmAb2.109, RhmAb2.110, RhmAb2.111 RhmAb2.112, RmmAb22.101, and RmmAb22.102, commercially available histones (H1, H2A, H2B, H3 and H4) were deiminated with human peptidylarginine deiminase (PAD, EC 3.5.3.15) enzymes (huPAD2 or huPAD4). Deiminated as well as non-deiminated histones were coated on 96-well ELISA plates and incubated with serial dilutions of RhmAb2.101 and RhmAb2.102.

[2] = biological target: T2, peptide no. 12 (human histone 2A) (human, X at position 6 = citrulline; biotin-labelled); test: ELISA, Ab 0.000128 ug/well
T2 construct: also called peptide 12
T2 peptide: NKLLGXVTIAQG
Description: (§3) Biotin and citrulline-containing peptides derived from histone 2A were immobilized on NEUTRAVIDIN®-coated 96-well ELISA plates (0.3 μg/well). CFC-1 and CFC-0 were coated at the same concentration and served as positive and negative controls, respectively, for specific anti-citrulline reactivity and as coating controls. Non-coated wells were used to test for aspecific binding of the antibodies. […] Detection of bound anti-citrulline antibodies was performed by incubating the wells with rabbit anti-human HRP (1:2000) for 1 hour at RT followed by incubation with TMB substrate. The resulting OD (y-axis) is a measure for antibody binding.

[3] = biological target: T3, peptide no. 4 (human histone 2A) (human, X at position 6 = citrulline; biotin-labelled); test: ELISA, Ab 0.000128 ug/well
T3 construct: also called peptide 4
T3 peptide: QFPVGXVHRLLR
Description: as §3

[4] = biological target: T4, peptide no. 7 (human histone 2A) (human, X at position 6 = citrulline; biotin-labelled); test: ELISA, Ab 0.000128 ug/well
T4 construct: also called peptide 7
T4 peptide: GNYSEXVGAGAP
Description: as §3

[5] = biological target: T5, peptide no. 10 (human histone 2A) (human, X at position 6 = citrulline; biotin-labelled); test: ELISA, Ab 0.08 ug/well
T5 construct: also called peptide 10
T5 peptide: TRIIPXHLQLAI
Description: as §3
(§4) To further pinpoint the exact citrullinated epitope on H2A that is recognized by RhmAb2.102, biotin-labeled peptides as shown in Table 4 were synthesized containing potential deimination sites of histone 2A. These peptides were coated on 96-well NEUTRAVIDIN®-ELISA plates and incubated with serial dilutions of RhmAb2.101 and RhmAb2.102.

[6] = biological target: T4, peptide no. 7 (human histone 2A); test: ELISA, Ab 0.08 ug/well
Description: as §3, §4

[7] = biological target: T6, peptide no. 3 (human histone 2A) (human, X at position 6 = citrulline; biotin-labelled); test: ELISA, Ab 0.0032 ug/well
T6 construct: also called peptide 3
T6 peptide: KSRSSXAGLQFP
Description: as §3, §4

[8] = biological target: T7, peptide no. 9 (human histone 2A) (human, X at position 6 = citrulline; biotin-labelled); test: ELISA, Ab 0.0032 ug/well
T7 construct: also called peptide 9
T7 peptide: DNKKTXIIPRHL
Description: as §3, §4

[9] = biological target: T8, peptide no. 6 (human histone 2A) (human, X at position 6 = citrulline; biotin-labelled); test: ELISA, Ab 0.0032 ug/well
T8 construct: also called peptide 6
T8 peptide: VHRLLXKGNYSE
Description: as §3, §4

[10] = biological target: T6, peptide no. 3 (human histone 2A); test: ELISA, Ab 0.00064 ug/well
Description: as §3, §4

[11] = biological target: T5, peptide no. 10 (human histone 2A); test: ELISA, Ab 0.00064 ug/well
Description: as §3, §4

[12] = biological target: T2, peptide no. 12 (human histone 2A); test: ELISA, Ab 0.00064 ug/well
Description: as §3, §4

[13] = biological target: T8, peptide no. 6 (human histone 2A); test: ELISA, Ab 0.00064 ug/well
Description: as §3, §4

[14] = biological target: T1, human recombinant histone 3; test: ELISA, Ab 2 ug/well
Source text: as §1, §2

B1: RhmAb2.102 (antibody, human IgG1, lambda)
heavy: not shown
light: QSVLTQPPSMSAAPGQKVTISCSGSSSNIGNNYVSWYQQVPGTAPKLLIYDDNKRPSGIPGRFSGSKSATSATLGITGLQAGDEADYYCGSWDDNLSVVLFGGGTKLTVLGQPKAAPSVTLFPPSSEELQANKATLVCLISDFYPGAVTVAWKADSSPVKAGVETTTPSKQSNNKYAASSYLSLTPEQWKSHRSYSCQVTHEGSTVEKTVAPTECS
notes: Human IgG1 lambda; also called Rhm2.102
OD [1]: 0.549 OD450
OD [2]: 0.056 OD450
OD [3]: 0.058 OD450
OD [4]: 0.056 OD450
OD [5]: 0.058 OD450
OD [6]: 0.062 OD450
OD [7]: 0.062 OD450
OD [8]: 0.062 OD450
OD [9]: 0.058 OD450
OD [10]: 0.058 OD450
OD [11]: 0.056 OD450
OD [12]: 0.056 OD450
OD [13]: 0.058 OD450
OD [14]: 0.275 OD450
